Values quoted from earlier work in PMC7238232, “Acamprosate Is a Substrate of the Human Organic Anion Transporter (OAT) 1 without OAT3 Inhibitory Properties: Implications for Renal Acamprosate Secretion and Drug–Drug Interactions” (Pharmaceutics, 2020).
Where two headings read alike, the source gives them in different places.

Tested on: human OAT1
Settings: cited from earlier work

SMILES | IC50 (read-out: IC50, probenecid inhibition of PAH uptake, published values, other cell models expressing human OAT1) | IC50 (read-out: IC50 of other drug substances inhibiting OAT1)
CCCN(CCC)S(=O)(=O)c1ccc(C(=O)O)cc1 [probenecid] | 6 to 31 µM | –
CC(=O)Oc1ccccc1C(=O)O [acetylsalicylate] | – | 769 µM
